Test results reported in article PMC4537157 (PLoS ONE, 2015).

Key:
Type in all cases: cell-based
[1] = biological target: T1, human TLR7 (Homo sapiens, UniProt Q9NYK1); assay: NF-κB induction in HEK-Blue reporter cells transfected with human TLR7; settings: HEK-293 cells transfected with human TLR7, SEAP reporter, 18–24 h; read-out: EC50, half maximal activation of NF-κB (hTLR-7) (converted)
T1 construct: host or cells: HEK293 (HEK-Blue)
T1 sequence (Q9NYK1 27-1049): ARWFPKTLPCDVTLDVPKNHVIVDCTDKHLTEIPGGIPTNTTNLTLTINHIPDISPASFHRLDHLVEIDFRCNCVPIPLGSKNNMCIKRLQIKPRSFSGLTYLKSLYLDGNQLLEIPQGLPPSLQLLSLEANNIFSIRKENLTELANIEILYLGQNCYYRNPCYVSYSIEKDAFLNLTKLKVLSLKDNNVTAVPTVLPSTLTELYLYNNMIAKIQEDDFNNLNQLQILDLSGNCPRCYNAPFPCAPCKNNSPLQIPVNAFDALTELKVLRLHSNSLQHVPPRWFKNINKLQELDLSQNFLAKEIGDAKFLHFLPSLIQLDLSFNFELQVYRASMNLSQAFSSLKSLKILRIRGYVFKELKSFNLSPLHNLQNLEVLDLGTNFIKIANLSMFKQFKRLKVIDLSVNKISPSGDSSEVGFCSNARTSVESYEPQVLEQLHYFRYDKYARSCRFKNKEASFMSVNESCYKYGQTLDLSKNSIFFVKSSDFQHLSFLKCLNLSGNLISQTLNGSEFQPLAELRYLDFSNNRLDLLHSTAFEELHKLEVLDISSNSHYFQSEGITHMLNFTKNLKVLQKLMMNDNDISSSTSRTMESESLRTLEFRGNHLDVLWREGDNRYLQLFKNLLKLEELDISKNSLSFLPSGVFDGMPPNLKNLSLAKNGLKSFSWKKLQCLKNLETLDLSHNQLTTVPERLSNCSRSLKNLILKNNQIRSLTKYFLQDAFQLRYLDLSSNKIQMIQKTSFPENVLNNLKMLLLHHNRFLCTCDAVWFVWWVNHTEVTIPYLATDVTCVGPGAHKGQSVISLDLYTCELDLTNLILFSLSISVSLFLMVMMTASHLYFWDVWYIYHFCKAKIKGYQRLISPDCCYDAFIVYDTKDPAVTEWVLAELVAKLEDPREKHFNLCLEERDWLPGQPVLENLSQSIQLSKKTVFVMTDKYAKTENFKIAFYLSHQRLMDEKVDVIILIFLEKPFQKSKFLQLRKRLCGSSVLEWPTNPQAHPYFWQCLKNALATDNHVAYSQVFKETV

[2] = biological target: T2, human TLR8 (Homo sapiens, UniProt Q9NR97); assay: NF-κB induction in HEK-Blue reporter cells transfected with human TLR8; settings: HEK-293 cells transfected with human TLR8, SEAP reporter, 18–24 h; read-out: EC50, half maximal activation of NF-κB (hTLR-8) (converted)
T2 construct: host or cells: HEK293 (HEK-Blue)
T2 sequence (Q9NR97 27-1041): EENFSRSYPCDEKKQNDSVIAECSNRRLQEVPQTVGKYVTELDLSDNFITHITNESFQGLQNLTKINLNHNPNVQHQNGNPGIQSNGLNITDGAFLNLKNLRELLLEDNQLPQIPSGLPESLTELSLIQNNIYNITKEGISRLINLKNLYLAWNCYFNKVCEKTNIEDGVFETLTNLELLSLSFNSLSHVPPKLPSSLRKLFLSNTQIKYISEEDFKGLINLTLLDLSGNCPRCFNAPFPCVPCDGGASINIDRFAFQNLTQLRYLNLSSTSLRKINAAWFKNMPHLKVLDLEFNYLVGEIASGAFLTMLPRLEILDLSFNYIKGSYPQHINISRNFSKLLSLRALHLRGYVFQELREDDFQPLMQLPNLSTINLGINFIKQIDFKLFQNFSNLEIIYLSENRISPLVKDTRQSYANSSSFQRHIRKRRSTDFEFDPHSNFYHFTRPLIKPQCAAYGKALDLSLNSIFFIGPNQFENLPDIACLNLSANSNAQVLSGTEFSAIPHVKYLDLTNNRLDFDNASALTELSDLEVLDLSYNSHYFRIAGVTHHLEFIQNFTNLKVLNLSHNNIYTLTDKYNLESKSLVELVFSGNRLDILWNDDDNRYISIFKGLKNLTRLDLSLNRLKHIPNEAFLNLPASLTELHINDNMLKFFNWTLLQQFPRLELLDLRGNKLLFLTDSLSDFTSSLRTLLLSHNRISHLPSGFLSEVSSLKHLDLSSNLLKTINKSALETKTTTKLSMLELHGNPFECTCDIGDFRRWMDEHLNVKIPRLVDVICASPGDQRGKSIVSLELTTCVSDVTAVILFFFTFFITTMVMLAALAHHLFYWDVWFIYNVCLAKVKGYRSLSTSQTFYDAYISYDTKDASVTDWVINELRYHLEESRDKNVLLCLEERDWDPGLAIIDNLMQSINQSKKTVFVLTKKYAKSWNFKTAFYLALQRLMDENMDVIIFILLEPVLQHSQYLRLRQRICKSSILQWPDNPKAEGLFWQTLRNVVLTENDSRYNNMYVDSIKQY

[3] = system: human newborn cord blood; assay: Whole blood cytokine assay (TNF, IL-1β ELISA), newborn cord blood; settings: for IL-1β production / TNF-α production: Newborn blood, 6 h
Procedure: (§1) Assessment of TLRA activity in whole blood was completed as previously described. […] Vehicle (DMSO) was added separately as a control. Suspensions containing 200 μl/well were gently mixed by pipetting and incubating for 6 h at 37°C in a humidified incubator at 5% CO2. After culture, plates were centrifuged at 500 x g and 100–150 μl of supernatant was carefully removed by pipetting without disturbing the cell pellet. Supernatants derived from human leukocyte stimulations were assayed by enzyme-linked immunoabsorbent assay (ELISA) for TNF (BD Biosciences, San Jose, CA, USA) and IL-1β (eBiosciences, San Diego, CA). Experiments were performed in triplicates.
(§2) Compound concentrations are shown in μM. Data are shown as mean ± SEM of n = 6–8.
(§3) Compound concentrations are shown in μM/ml. Cytokine production is shown as pg/ml. (PDF) Click here for additional data file.

[4] = system: human adult peripheral blood; assay: Whole blood cytokine assay (TNF, IL-1β ELISA), adult peripheral blood; settings: for IL-1β production / TNF-α production: Adult blood, 6 h
Procedure: as §1, §2, §3

[5] = system: human newborn and adult leukocytes; assay: Whole blood and MoDC assays, overall potency as summarised in the discussion; settings: Leukocyte
Procedure: as §1

## CCCCc1nc2c(N)nc3ccccc3c2n1Cc1cccc(CN)c1 [Meta-amine]
[1]
  EC50: 81.8 nM
[2]
  EC50: 92.9 nM

## CCCCc1nc2c(N)nc3ccccc3c2n1CC(C)(C)O [Hybrid-2]
[3]; 0.01 µM
  IL-1β production: 15.63 pg/mL
  TNF-α production: 193.14 pg/mL
[3]; 0.03 µM
  IL-1β production: 15.63 pg/mL
  TNF-α production: 189.84 pg/mL
[3]; 0.1 µM
  IL-1β production: 129.48 pg/mL
  TNF-α production: 464.55 pg/mL
[3]; 0.3 µM
  IL-1β production: 437.70 pg/mL
  TNF-α production: 1998.77 pg/mL
[3]; 1 µM
  TNF-α production: 3750.42 pg/mL
[3]; 10 µM
  IL-1β production: 1887.36 pg/mL
  TNF-α production: 10395.78 pg/mL
[3]; neonatal blood, 0.1 μM and 1 μM, N = 6, p < 0.05
  Efficacy in inducing TNF and IL-1β production compared to R848: greater efficacy
[4]; 0.01 µM
  IL-1β production: 15.63 pg/mL
  TNF-α production: 23.44 pg/mL
[4]; 0.03 µM
  IL-1β production: 15.63 pg/mL
  TNF-α production: 102.83 pg/mL
[4]; 0.1 µM
  IL-1β production: 37.42 pg/mL
  TNF-α production: 1427.29 pg/mL
[4]; 0.3 µM
  IL-1β production: 427.95 pg/mL
  TNF-α production: 6362.58 pg/mL
[4]; 10 µM
  IL-1β production: 2972.60 pg/mL
  TNF-α production: 20983.61 pg/mL
[4]; adult blood, 0.1 μM and 1 μM respectively, N = 6, p < 0.05
  Efficacy in stimulating TNF and IL-1β production compared to R848: greater efficacy
[5]
  EC50: 300 nM
